Data taken from ChEMBL document CHEMBL1828629, “Identification of a non-phosphorylated, cell permeable, small molecule ligand for the Stat3 SH2 domain” (Bioorg Med Chem Lett, 2011).

Chains of the proteins cited; added tags and fusions are not shown.
UniProt P40763, whole entry: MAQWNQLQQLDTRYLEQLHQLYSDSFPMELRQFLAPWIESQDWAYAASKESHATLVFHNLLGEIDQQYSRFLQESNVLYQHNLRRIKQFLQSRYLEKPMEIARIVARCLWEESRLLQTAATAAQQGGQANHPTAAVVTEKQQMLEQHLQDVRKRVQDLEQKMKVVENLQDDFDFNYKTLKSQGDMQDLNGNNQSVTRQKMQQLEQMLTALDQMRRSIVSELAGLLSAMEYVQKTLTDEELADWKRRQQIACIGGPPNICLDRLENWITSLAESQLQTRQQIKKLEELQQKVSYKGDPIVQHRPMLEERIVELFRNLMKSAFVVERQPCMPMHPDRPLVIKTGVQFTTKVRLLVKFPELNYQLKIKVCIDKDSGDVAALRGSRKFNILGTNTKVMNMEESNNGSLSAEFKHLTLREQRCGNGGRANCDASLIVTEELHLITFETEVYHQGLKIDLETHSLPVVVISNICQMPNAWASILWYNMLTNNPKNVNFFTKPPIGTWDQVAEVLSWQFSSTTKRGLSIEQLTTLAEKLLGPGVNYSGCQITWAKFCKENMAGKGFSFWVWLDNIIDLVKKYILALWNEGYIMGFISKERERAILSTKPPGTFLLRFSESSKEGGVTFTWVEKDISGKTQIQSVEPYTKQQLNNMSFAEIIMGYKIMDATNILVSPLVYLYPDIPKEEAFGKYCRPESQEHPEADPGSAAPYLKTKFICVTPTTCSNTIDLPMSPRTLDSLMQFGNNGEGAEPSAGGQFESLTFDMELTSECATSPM

Target: Signal transducer and activator of transcription 3 (Homo sapiens, UniProt P40763)
Experiment: Inhibition of STAT3 using fluorescent probe 5-carboxyfluorescein-GpYLPQTV-NH2 after 15 mins by fluorescence polarisation assay

CN(C)c1cccc2c(S(=O)(=O)N(C)CC(=O)N(Cc3ccc(C4CCCCC4)cc3)c3ccc(C(=O)O)c(O)c3)cccc12
Ki: 13.3 µM
